Patent publication US9707233B2, “Heterocyclylamines as PI3K inhibitors” (Incyte Corporation, priority 2011, dated 2017)

Protein sequences, listed by entry. Tags and fused reporters are not part of them. Lines headed by an entry give the natural chain unless they say otherwise; changes in a name come on top.
UniProt O00329: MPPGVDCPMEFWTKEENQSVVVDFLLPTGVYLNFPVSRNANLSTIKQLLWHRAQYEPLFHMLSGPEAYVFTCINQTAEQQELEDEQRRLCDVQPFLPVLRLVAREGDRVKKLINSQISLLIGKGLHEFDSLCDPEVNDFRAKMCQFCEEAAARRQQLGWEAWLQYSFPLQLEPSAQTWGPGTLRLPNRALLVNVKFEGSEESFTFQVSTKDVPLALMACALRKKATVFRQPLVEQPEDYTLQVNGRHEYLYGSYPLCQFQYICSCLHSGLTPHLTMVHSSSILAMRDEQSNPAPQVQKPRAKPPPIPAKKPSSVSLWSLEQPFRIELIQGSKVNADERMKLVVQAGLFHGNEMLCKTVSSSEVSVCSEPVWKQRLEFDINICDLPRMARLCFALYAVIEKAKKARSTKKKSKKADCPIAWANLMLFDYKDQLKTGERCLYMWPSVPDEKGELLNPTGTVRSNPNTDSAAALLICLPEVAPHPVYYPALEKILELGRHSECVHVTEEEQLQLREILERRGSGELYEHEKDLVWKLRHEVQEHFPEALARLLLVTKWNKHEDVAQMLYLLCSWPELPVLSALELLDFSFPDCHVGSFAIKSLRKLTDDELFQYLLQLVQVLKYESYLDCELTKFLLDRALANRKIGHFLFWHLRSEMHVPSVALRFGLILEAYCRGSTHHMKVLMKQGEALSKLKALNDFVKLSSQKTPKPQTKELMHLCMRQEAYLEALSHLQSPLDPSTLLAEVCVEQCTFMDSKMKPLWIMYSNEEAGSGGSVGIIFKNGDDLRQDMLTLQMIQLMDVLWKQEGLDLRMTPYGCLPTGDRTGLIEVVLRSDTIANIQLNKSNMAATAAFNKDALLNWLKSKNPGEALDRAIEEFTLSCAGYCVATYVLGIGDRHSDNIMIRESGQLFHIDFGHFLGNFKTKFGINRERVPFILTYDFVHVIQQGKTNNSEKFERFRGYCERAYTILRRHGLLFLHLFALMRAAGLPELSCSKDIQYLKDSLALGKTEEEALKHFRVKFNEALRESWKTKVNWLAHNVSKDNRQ

Target: PI3Kδ (p110δ/p85α) (Homo sapiens (Human), UniProt O00329)
Assay: PI3Kδ scintillation proximity assay (Example A3)
Format: biochemical
Details: 20 μM ATP, 20 μM PIP2, 4 nM PI3Kδ; read-out: PI3Kδ SPA IC50
Source text: [γ-^33P]ATP (10 mCi/mL) was purchased from Perkin-Elmer (Waltham, Mass.). Lipid kinase substrate, D-myo-Phosphatidylinositol 4,5-bisphosphate (PtdIns(4,5)P2)D (+)-sn-1,2-di-O-octanoylglyceryl, 3-O-phospho linked (PIP2), CAS 204858-53-7, was purchased from Echelon Biosciences (Salt Lake City, Utah). PI3Kδ (p110δ/p85α) was purchased from Millipore (Bedford, Mass.). ATP, MgCl2, DTT, EDTA, MOPS and CHAPS were purchased from Sigma-Aldrich (St. Louis, Mo.). Wheat Germ Agglutinin (WGA) YSi SPA Scintillation Beads was purchased from GE healthcare life sciences (Piscataway, N.J.).
The kinase reaction was conducted in polystyrene 384-well matrix white plate from Thermo Fisher Scientific in a final volume of 25 μL. Inhibitors were first diluted serially in DMSO and added to the plate wells before the addition of other reaction components. The final concentration of DMSO in the assay was 0.5%. The PI3K assays were carried out at room temperature in 20 mM MOPS, pH 6.7, 10 mM MgCl2, 5 mM DTT and CHAPS 0.03%. Reactions were initiated by the addition of ATP, the final reaction mixture consisted of 20 μM PIP2, 20 μM ATP, 0.2 μCi [γ-^33P]ATP, 4 nM PI3Kδ. Reactions were incubated for 210 min and terminated by the addition of 40 μL SPA beads suspended in quench buffer: 150 mM potassium phosphate pH 8.0, 20% glycerol. 25 mM EDTA, 400 μM ATP. The final concentration of SPA beads was 1.0 mg/mL. After the plate sealing, plates were shaken overnight at room temperature and centrifuged at 1800 rpm for 10 minutes, the radioactivity of the product was determined by scintillation counting on Topcount (Perkin-Elmer). IC50 determination was performed by fitting the curve of percent control activity versus the log of the inhibitor concentration using the GraphPad Prism 3.0 software. IC50 data for the Examples is presented in Table 10 as determined by Assay A3. IC50 data for Examples 361 and 363 is shown in Table 10a as determined by Assay A2.

| SMILES | IC50 |
| --- | --- |
| COc1c(C(C)n2nc(C)c3c(N)ncnc32)cc(Cl)c(F)c1C1CN(C(C)C)C1 (racemic) [Example 13, 1-{1-[5-Chloro-4-fluoro-3-(1-isopropylazetidin-3-yl)-2-methoxyphenyl]ethyl}-3-methyl-1H-pyrazolo[3,4-d]pyrimidin-4-amine bis(trifluoroacetate)] | ≤ 10 nM |
| CCOc1c(C(C)n2ccc(=O)c3c(N)ncnc32)cc(Cl)c(C)c1-c1ccc(C(=O)N(C)C)nc1 (racemic) [Example 36, 5-{3-[1-(4-Amino-5-oxopyrido[2,3-d]pyrimidin-8(5H)-yl)ethyl]-5-chloro-2-ethoxy-6-methylphenyl}-N,N-dimethylpyridine-2-carboxamide bis(trifluoroacetate)] | ≤ 10 nM |
| COc1c(C(C)n2nc(C)c3c(N)ncnc32)cc(Cl)c(F)c1C1CN(C(C)C)C1 (single isomer, unassigned) [67 (1st peak), 1-{1-[5-Chloro-4-fluoro-3-(1-isopropylazetidin-3-yl)-2-methoxyphenyl]ethyl}-3-methyl-1H-pyrazolo[3,4-d]pyrimidin-4-amine] | ≤ 10 nM |
| CCOC(=O)C(C)(C)N1CC(c2c(C#N)c(Cl)cc(C(C)n3nc(C)c4c(N)ncnc43)c2OCC)C1 (single isomer, unassigned) [Example 238, Ethyl 2-(3-{3-[1-(4-amino-3-methyl-1H-pyrazolo[3,4-d]pyrimidin-1-yl)ethyl]-5-chloro-6-cyano-2-ethoxyphenyl}azetidin-1-yl)-2-methylpropanoate] | ≤ 10 nM |
